The values that follow come from patent US20250304535A1, “KAT6 Inhibitors” (BeiGene Switzerland GmbH, priority 2024, published 2025).

By UniProt entry, the sequences of proteins in these tests, tags left out. Residues count along the entry.
UniProt Q92794, 497-780: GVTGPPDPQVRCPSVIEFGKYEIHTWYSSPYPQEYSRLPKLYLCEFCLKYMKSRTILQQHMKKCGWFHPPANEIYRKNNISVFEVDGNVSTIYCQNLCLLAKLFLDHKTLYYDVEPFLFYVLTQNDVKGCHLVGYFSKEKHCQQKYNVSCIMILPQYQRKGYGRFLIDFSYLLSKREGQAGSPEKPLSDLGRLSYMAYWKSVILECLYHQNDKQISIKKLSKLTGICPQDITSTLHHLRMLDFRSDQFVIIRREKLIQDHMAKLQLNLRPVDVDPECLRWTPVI

For the assay, the target named is Recombinant human KAT6A protein (497-780) (Homo sapiens (Human), UniProt Q92794). The assay is described as follows: KAT6A biochemical TR-FRET assay. Conditions: histone H4 peptide 2000 nM, AcCoA 300 nM, enzyme 5 nM. Here is the method: Enzymatic reactions of KAT6A and KAT6B were performed using Fluorescence Resonance Energy Transfer (TR-FRET) assay, which measures acetylation of a synthetic, biotinylated histone-H4 peptide by the KAT6A and KAT6B enzymes. Recombinant human KAT6A protein (497-780) were expressed in BL21 cell using an E. coli expression system. Recombinant human KAT6B protein (657-1069) was expressed in sf9 cell using a baculovirus expression system. Histone H4 peptide (SEQ ID NO: 1—[…]-GGK-Biotin), which was used as substrate, was synthesized by GL Biochem, Shanghai, China. Acetyl coenzyme A was purchased from Sigma-Aldrich (#A-2056).
Testing for the inhibition activities of various compounds disclosed herein was carried out at room temperature in assay buffer containing 100 mM Tris/HCl Ph7.8, 15 mM NaCl, 0.01% chicken egg white albumin, 1 mM DTT and 0.01% Tween-20. Compounds in DMSO were dispensed into wells of a black, 384-well plate (Corning 4514) using ECHO555 (Beckman). The final concentration ranges of the test compounds were 0.0625-1,000 nM, 0.625-10,000 nM, or 0.313-5,000 nM. […] TR-FRET was measured on a microplate reader (PHERAstar FSX, BMG labtech). The IC50s were calculated based on inhibition of enzyme activity in the presence of increasing concentrations of test compounds, and the results are shown in Table 6. […]
For orientation: Time-resolved FRET reads energy transfer from a long-lived donor to a nearby acceptor.

Broadly, the IC50 is the concentration at which inhibition is half-maximal. Regarding `COc1cccc(OC)c1S(=O)(=O)NC(=O)c1ccc(Cn2cccn2)c(OC)n1` [Example C69, 5-((1H-pyrazol-1-yl)methyl)-N-((2,6-dimethoxyphenyl)sulfonyl)-6-methoxy-picolinamide], the 50% inhibitory concentration (IC50) is at most 5 nM.
